Laboratory results taken from patent publication US10654867B2 (Genentech, Inc., priority 2016, dated 2020).

Amino acid sequences for entries named in this document (tags omitted).
UniProt P03372, whole entry: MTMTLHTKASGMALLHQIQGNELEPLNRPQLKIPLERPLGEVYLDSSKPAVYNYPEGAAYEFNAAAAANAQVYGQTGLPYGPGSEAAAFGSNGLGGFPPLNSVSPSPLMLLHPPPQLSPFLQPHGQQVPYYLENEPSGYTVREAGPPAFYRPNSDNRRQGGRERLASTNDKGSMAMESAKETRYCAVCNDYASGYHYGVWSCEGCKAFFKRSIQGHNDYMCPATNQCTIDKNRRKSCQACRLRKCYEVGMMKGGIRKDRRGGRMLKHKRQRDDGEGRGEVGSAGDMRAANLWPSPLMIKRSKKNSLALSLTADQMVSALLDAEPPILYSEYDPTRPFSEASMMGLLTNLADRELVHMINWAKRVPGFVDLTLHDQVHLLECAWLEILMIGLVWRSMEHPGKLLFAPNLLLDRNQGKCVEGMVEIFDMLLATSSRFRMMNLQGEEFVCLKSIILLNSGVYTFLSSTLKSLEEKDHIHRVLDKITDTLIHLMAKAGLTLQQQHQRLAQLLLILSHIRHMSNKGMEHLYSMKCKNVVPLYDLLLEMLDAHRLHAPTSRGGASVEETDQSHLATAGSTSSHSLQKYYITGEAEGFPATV

Target: estrogen receptor alpha (ESR1) in MCF7 breast cancer cells (Homo sapiens, UniProt P03372)
Assay: Breast Cancer Cell ERa High Content Fluorescence Imaging Degradation Assay (ER-alpha MCF7 HCS)

ER-alpha MCF7HCS Sinf (4 hours, plateau of the maximal effect, DMSO and fulvestrant define 0% and 100% change in ESR1, Table 1a): −45% | EC50 (read-out: ER-alpha MCF7HCS EC50, 4 hours incubation, inflexion point of curve (Robust Fit), Table 1a): 43.4 nM
Compound: C[C@H]1CN(CC(C)(C)F)[C@@H](c2c(F)cc(OCCN3CC(CF)C3)cc2F)c2[nH]c3ccccc3c21 (single isomer, unassigned)
